In the library only some 0.94% were active in any assay of this set; here they are far more common.
Granule exo inh: lytic granule exocytosis inhibition; AID 651702; inhibition, % at 10 µM; 360,000 compounds, 0.66% hits; TALL-104 LAMP-1 surface exposure, flow cytometry; cells stimulated with thapsigargin and PMA;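 active = inhibition above about 55%, limit read from the data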
pCIP destab: lowers stability of the mouse p/CIP coactivator protein. Q05BA5. F442A p/CIP-EGFP cells, EGFP fluorescence, 16 h. decrease of EGFP signal, % at 10 µM. 290,000 compounds, 0.01% hits;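 active = EGFP signal decrease of at least 30% at 10 µM or well 3 SD below plate mean, unless failing retest; inactive = the rest, including hits failing retest or dose response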
PKA-R1A activ: PKA-R1A complex activation | PKA-R1A dissociation, Cy5-IP20 fluorescence polarization; scaled: DMSO 0%, 113 µM cGMP 100% | activation, % at 11.4 µM | 340,000 compounds, 0.083% hits;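 active = percent activation above the mean of all tested compounds plus 3 SD, cut at about 19% in these data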;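 also: higher means more PKAc released from R1A so a rise in polarization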
ABCB6 inh 2: human ABCB6 transporter inhibition; 360,000 compounds, 0.19% hits; AID 602162; fluorescence ratio to DMSO, % at 10 µM; K562-ABCB6 porphyrin accumulation, flow cytometry, 1 h; active compounds read low;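 active = fluorescence ratio to DMSO below 75%, the collection mean minus 3 SD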;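 also: signal is porphyrin accumulated inside mitochondria; 100% equals median channel fluorescence of DMSO control wells; lower ratio means ABCB6 inhibition with less porphyrin fluorescence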
Yeast UUG start: modulators of start codon recognition fidelity in yeast | S. cerevisiae UUG-firefly luciferase reporter, luminescence/redox ratio | activity score, % at 18.7 µM | 350,000 tested, 0.13% active;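 active = replicate mean at a twofold rise or more, about +100% in these data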;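 also: firefly luciferase made from a UUG start codon reports start codon fidelity; reporter light over untreated wells divided by growth signal over untreated wells; some hits fall short of that in this replicate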
PKA-R2B act: PKA-R2B complex activation | P22694+P31323 | PKA-R2B holoenzyme dissociation, Cy5-IP20 fluorescence polarization; R2B truncated from residue 108, S112A mutant; 0% DMSO only, 100% 113 µM cGMP | activation, % at 11.4 µM | 340,000 compounds, 0.079% hits | AID 504700;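 active = activation above a cutoff set at the mean over all compounds plus 3 SD, cut at about 18% in these data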;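 also: higher means more holoenzyme dissociation and a rise in polarization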
Active calls of the source: *; i = inactive; / = no result.

pCIP destab	PKA-R1A activ	Yeast UUG start	Granule exo inh	ABCB6 inh 2	PKA-R2B act	smiles
/	2.5	27.2	-11.4	102.0	21.1*	C#CCOCCOCCOCCNc1nc(N2CCN(C(=O)CCCCCCCCCCNC(=O)Cn3cc(CCCCCN)nn3)CC2)nc(N2CCN(C(=O)CCCCCCCCCCNC(=O)[C@H]([C@@H](C)CC)n3cc(CCCCN=C(N)N)nn3)CC2)n1
/	-5.9	9.8	65.1*	97.0	-4.7	C#CCOCCOCCOCCNc1nc(N2CCN(C(=O)CCCCCCCCCCNC(=O)Cn3cc(CCCCCN)nn3)CC2)nc(N2CCN(C(=O)CCCCCCCCCCNC(=O)[C@@H](CCSC)n3cc(CCO)nn3)CC2)n1
/	/	-15.1	/	/	/	CCC(=O)N[C@@H]1CC[C@H](CC(=O)NCc2ccccc2OC)O[C@H]1CO
/	/	17.5	/	/	/	Cc1noc(C)c1NC(=O)N(C)C[C@@H]1Oc2ncc(C#Cc3ccccc3)cc2C(=O)N([C@H](C)CO)C[C@@H]1C
-1.9	-9.8	-9.1	-1.7	97.0	-1.1	COc1ccccc1/C=C/C=N/n1c(-c2cc(C)[nH]n2)n[nH]c1=S
2.3	-19.2	/	-0.5	65.0*	-14.0	Cc1cc(-c2n[nH]c(=S)n2/N=C/C=C/c2ccccc2)n[nH]1
/	/	-12.3	/	/	/	O=C(N[C@@H]1CC[C@H](CC(=O)N2CCCCC2)O[C@@H]1CO)c1cccc(F)c1
-32.4	0.9	-2.4	-3.7	109.0	6.3	COc1cc(/C=C(/C#N)C(=O)NC(C)c2ccccc2)cc(OC)c1O (stereo not drawn)
-0.7	4.5	-5.3	76.9*	103.0	12.2	COc1ccccc1/C=C/C=C(\C#N)C(=O)NC(C)c1ccccc1 (stereo not drawn)
/	/	-11.0	73.2*	96.0	/	Cc1cc(C(=O)c2ccc3ccccc3c2)c(C)o1

The closing 3 compounds of the part above come first, to join the parts.
pCIP destab	PKA-R1A activ	Yeast UUG start	Granule exo inh	ABCB6 inh 2	PKA-R2B act	smiles
-32.4	0.9	-2.4	-3.7	109.0	6.3	COc1cc(/C=C(/C#N)C(=O)NC(C)c2ccccc2)cc(OC)c1O (stereo not drawn)
-0.7	4.5	-5.3	76.9*	103.0	12.2	COc1ccccc1/C=C/C=C(\C#N)C(=O)NC(C)c1ccccc1 (stereo not drawn)
/	/	-11.0	73.2*	96.0	/	Cc1cc(C(=O)c2ccc3ccccc3c2)c(C)o1
/	/	8.5	/	/	/	CCC(=O)N1C[C@H](C)[C@@H](OC)CN(C)C(=O)c2cc(NC(=O)COC)ccc2OC[C@@H]1C
-9.5	-1.2	-17.7	1.1	69.0*	-7.8	O=C(NC1(C(=O)NC2CCCC2)CCCCC1)c1ccc2c(c1)OCO2
-6.8	3.7	-23.3	1.1	94.0	-2.4	O=C(NC1(C(=O)NC2CCCCC2)CCCCC1)c1ccc2c(c1)OCO2
-4.4	4.1	-8.3	82.3*	98.0	5.9	CCN1CCN(c2ncnc3scc(-c4ccc(C)c(C)c4)c23)CC1
-3.2	-10.2	12.6	5.4	93.0	2.1	Fc1ccc(CN2CCN(c3ncnc4scc(-c5ccc(F)cc5)c34)CC2)cc1
/	/	7.7	/	/	/	CO[C@@H]1CN(C)C(=O)c2ccc(NC(=O)Nc3c(C)noc3C)cc2OC[C@@H](C)N(C)C[C@H]1C
/	/	42.9*	/	/	/	CN(C)C(=O)C[C@@H]1C[C@@H]2c3cc(NC(=O)Nc4ccccc4)ccc3O[C@@H]2[C@@H](CO)O1
/	/	49.8*	/	/	/	O=C(O)C[C@@H]1C[C@@H]2c3cc(NC(=O)CC4CC4)ccc3O[C@@H]2[C@@H](CO)O1
/	/	-6.7	/	/	/	O=C(O)C[C@@H]1C[C@@H]2c3cc(NC(=O)CC4CC4)ccc3O[C@@H]2[C@H](CO)O1
/	/	-0.3	/	/	/	C[C@H]1CN([C@@H](C)CO)C(=O)c2cc(C#Cc3ccccc3F)cnc2O[C@H]1CN(C)C(=O)Cc1ccccc1

In the list so far, two contain a COOH group.
pCIP destab	PKA-R1A activ	Yeast UUG start	Granule exo inh	ABCB6 inh 2	PKA-R2B act	smiles
/	/	49.8*	/	/	/	O=C(O)C[C@@H]1C[C@@H]2c3cc(NC(=O)CC4CC4)ccc3O[C@@H]2[C@@H](CO)O1
/	/	-6.7	/	/	/	O=C(O)C[C@@H]1C[C@@H]2c3cc(NC(=O)CC4CC4)ccc3O[C@@H]2[C@H](CO)O1

Next section:
pCIP destab	PKA-R1A activ	Yeast UUG start	Granule exo inh	ABCB6 inh 2	PKA-R2B act	smiles
/	/	-1.7	/	/	/	O=C(Nc1ccc(F)cc1)N[C@H]1CC[C@@H](CCNS(=O)(=O)c2cccc(Cl)c2)O[C@H]1CO
-6.9	-5.0	/	77.9*	97.0	6.0	CCOC(=O)C(=N/O)/C(C)=N/NC(=O)C(=O)Nc1cc(Cl)ccc1Cl
/	/	3.9	/	/	/	CCCC(=O)Nc1ccc2c(c1)OC[C@H](C)N(C(=O)CC1CC1)C[C@H](C)[C@H](OC)CN(C)C2=O
-8.4	-7.2	-37.8	60.3*	94.0	5.8	C[C@]12CC[C@@H]3c4ccc(OC(=O)c5ccccc5)cc4CC[C@H]3[C@@H]1CC[C@@H]2O
/	4.5	11.7	2.6	98.0	2.2	CC(=O)Oc1ccc2c(c1)CCC1C2CCC2(C)C(OC(C)=O)CCC12 (stereo not drawn)
-197.3	-7.6	27.4	58.3*	i	-2.2	CC(C)(C)C(=O)/C=c1\s/c(=C\c2ccc(-c3ccc([N+](=O)[O-])cc3)o2)c(=O)n1CC(=O)NC(N)=O
/	0.0	/	-5.6	74.0*	-14.2	CC(=O)Nc1cc2c3ccccc3ccc2c2ccccc12
/	/	-15.2	/	/	/	Cn1cnc(S(=O)(=O)N[C@@H]2CC[C@H](CC(=O)Nc3ccc(-c4ccccc4)cc3)O[C@H]2CO)c1
33.7*	1.1	15.9	-1.1	96.0	-15.1	CCC(=O)NC(c1ccc(OC)cc1)c1c(O)ccc2ccccc12 (stereo not drawn)
-2.9	-2.0	/	4.2	101.0	-4.8	Cn1cc(/C=N/n2cnc3sc4c(c3c2=O)CCCC4)c2ccccc21
-29.9	-9.6	-8.8	83.3*	134.0	0.6	O=c1c2c3c(sc2ncn1/N=C/c1ccc([N+](=O)[O-])o1)CCCC3
/	/	-11.1	/	/	/	O=C(C[C@@H]1CC[C@H](NC(=O)c2ccccc2)[C@H](CO)O1)Nc1ccc(-c2ccccc2)cc1
-40.9	-5.1	/	40.3	i	-2.8	C=CC[n+]1c(/C=C2\C=Cc3cc(C)ccc3N2CC)ccc2ccccc21
-166.5	-1.1	24.4	72.8*	i	-6.5	CCN1/C(=C\c2ccc3cc(C)ccc3[n+]2CC)Sc2cc(C)c(C)cc21
/	3.3	/	74.3*	i	-2.0	CCN1/C(=C/c2ccc3cc(C)ccc3[n+]2CC)Sc2ccc3sccc3c21
-589.1	-1.2	13.5	75.7*	i	-7.7	CCN1/C(=C/c2ccc3cccc(C)c3[n+]2CC)Sc2ccccc21
-191.9	4.8	35.4	76.8*	i	-15.5	CCN1/C(=C/c2ccc3cc(C)cc(C)c3[n+]2CC)Sc2cc(C)ccc21
-22.5	9.3	-6.4	1.3	130.0	8.7	C[n+]1ccccc1/C=C1\Sc2ccccc2N1CCO
/	/	-5.2	/	/	/	COc1ccc(NC(=O)Nc2cccc3c2O[C@@H](CN(C)S(=O)(=O)c2cn(C)cn2)[C@@H](C)CN([C@@H](C)CO)C3=O)cc1
-7.7	-2.4	-33.3	-19.5	122.0	-6.8	O=c1c2c([N+](=O)[O-])cc([N+](=O)[O-])cc2sn1Cc1ccccc1
-7.9	-10.9	/	91.9*	94.0	-6.0	O=c1c2c([N+](=O)[O-])cc([N+](=O)[O-])cc2sn1-c1ccc(Br)cc1
/	-5.9	/	98.1*	98.0	2.2	CCOC(=O)c1c2c(n(-c3ccc(OC)cc3)c1C)C(=O)C(=O)c1ccccc1-2
/	/	12.3	/	/	/	COc1ccc(NC(=O)N(C)C[C@H]2OCCCC[C@@H](C)Oc3ccc(NS(=O)(=O)c4cccs4)cc3C(=O)N([C@@H](C)CO)C[C@H]2C)cc1
-3.2	-6.9	-24.4	78.8*	85.0	1.5	O=[N+]([O-])c1ccc(N=Nc2c(Cl)cc(O)cc2Cl)cc1

From PubChem
